Test system: subjects with RRMS
Test: BRAVO Phase III clinical trial, laquinimod 0.6 mg over placebo with reference arm IFN-β-1a (Avonex®)
Type: in vivo, human
Settings: vs placebo, 24 months
Description: ALLEGRO and BRAVO are two clinical trials reported in, e.g., PCT International Application Publication No. WO/2010/147665 ([…] et al.). BRAVO was a study performed in subjects with RRMS to assess the efficacy, safety and tolerability of laquinimod 0.6 mg over placebo in a double-blind design with a reference arm of IFN-β-1a (Avonex®) in a rater-blinded assessment. The study had treatment duration of 24 months and enrolled 1,331 subjects equally distributed between the three (3) treatment arms. The primary endpoint was ARR. Secondary endpoints were Brain atrophy, time to EDSS progression confirmed at 3 months and MSFC z-score. […] One of the basic assumptions used to assess the sample size for the study was that treatment with laquinimod will reduce the patient population ARR by 25% or more when compared to the placebo group. […] In light of this baseline imbalance, these two baseline MRI parameters were added to the model as additional covariates. […] It is inventors' assessment that the corrected results more adequately represent the true treatment effect of laquinimod.

[1] = corrected post-hoc analysis with two baseline MRI covariates

B1: Avonex®: IFN-β-1a (Avonex®), reference arm/comparator in the BRAVO study (protein, UniProt P01574 22-187, looked up)
Interferon beta: MSYNLLGFLQRSSNFQCQKLLWQLNGRLEYCLKDRMNFDIPEEIKQLQQFQKEDAALTIYEMLQNIFAIFRQDSSSTGWNETIVENLLANVYHQINHLKTVLEEKLEKEDFTRGKLMSSLHLKRYYGRILHYLKAKEYSHCAWTIVRVEILRNFYFINRLTGYLRN
ARR % reduction, Corrected [1]: 28.6% | Brain Atrophy % reduction, Corrected [1]: −9% | Cumulative number of GdE T1 lesions % reduction, Corrected [1]: 60% | Cumulative number of new T2 lesions (exploratory endpoint) % reduction, Corrected [1]: 52.3% | EDSS Progression (3 m confirmation) % reduction, Corrected [1]: 28.7% | MSFC % reduction, Corrected [1]: 63.7% | ARR % reduction, Corrected (corrected post-hoc analysis with two baseline MRI covariates, listed as Avonex ®): 28.7% | ARR % reduction, Original (original analysis): 25.9% | Brain Atrophy % reduction, Original (original analysis): −10% | Cumulative number of GdE T1 lesions % reduction, Original (original analysis): 61.5% | Cumulative number of new T2 lesions (exploratory endpoint) % reduction, Original (original analysis): 51.1% | EDSS Progression (3 m confirmation) % reduction, Original (original analysis): 25.8% | MSFC % reduction, Original (original analysis): 66.6% | ARR % reduction, Original (original analysis, listed as Avonex ®): 25.9%

From patent US20160000775A1, “USE OF HIGH DOSE LAQUINIMOD FOR TREATING MULTIPLE SCLEROSIS” (Teva Pharmaceutical Industries, Ltd., priority 2012, published 2016)
